{"source": "patent US20250011788A1", "about": "“NUCLEIC ACID INTERFERENCE PHARMACEUTICAL COMPOSITION, AND DRUG FOR TREATING COLORECTAL CANCER, GASTRIC CANCER, AND PROSTATE CANCER” (SIRNAOMICS BIOPHARMACEUTICALS (SUZHOU) CO., LTD., priority 2022, published 2025)", "tested_on": "MKN45 cells tumor xenograft", "test": "Mouse subcutaneous tumor xenograft model of gastric cancer MKN45 cells", "conditions": "STP500 3 mg/kg i.v. Q2D, Oxaliplatin 7.5 mg/kg i.p. QD", "data": [{"smiles": "O=C1[O][Pt]2([NH][C@@H]3CCCC[C@H]3[NH]2)[O]C1=O", "note": "[Oxaliplatin]", "values": [{"measurement": "effect on the weight of mice", "value": "decreased"}]}]}
